The test addresses aminopeptidase N (Homo sapiens, UniProt P15144). The experiment in a line: Inhibitory effect to aminopeptidase N (L-alanine-7-amido-4-methylcoumarin substrate, MOLT-4 cells, fluorescence). The format is biochemical. As to conditions: based on fluorescence intensity of the control fraction (Table 13, Test Example 9).

Protein sequences, listed by entry. Tags and fused reporters are not part of them. Residues count along the entry.
UniProt P15144, 2-967 limits assumed: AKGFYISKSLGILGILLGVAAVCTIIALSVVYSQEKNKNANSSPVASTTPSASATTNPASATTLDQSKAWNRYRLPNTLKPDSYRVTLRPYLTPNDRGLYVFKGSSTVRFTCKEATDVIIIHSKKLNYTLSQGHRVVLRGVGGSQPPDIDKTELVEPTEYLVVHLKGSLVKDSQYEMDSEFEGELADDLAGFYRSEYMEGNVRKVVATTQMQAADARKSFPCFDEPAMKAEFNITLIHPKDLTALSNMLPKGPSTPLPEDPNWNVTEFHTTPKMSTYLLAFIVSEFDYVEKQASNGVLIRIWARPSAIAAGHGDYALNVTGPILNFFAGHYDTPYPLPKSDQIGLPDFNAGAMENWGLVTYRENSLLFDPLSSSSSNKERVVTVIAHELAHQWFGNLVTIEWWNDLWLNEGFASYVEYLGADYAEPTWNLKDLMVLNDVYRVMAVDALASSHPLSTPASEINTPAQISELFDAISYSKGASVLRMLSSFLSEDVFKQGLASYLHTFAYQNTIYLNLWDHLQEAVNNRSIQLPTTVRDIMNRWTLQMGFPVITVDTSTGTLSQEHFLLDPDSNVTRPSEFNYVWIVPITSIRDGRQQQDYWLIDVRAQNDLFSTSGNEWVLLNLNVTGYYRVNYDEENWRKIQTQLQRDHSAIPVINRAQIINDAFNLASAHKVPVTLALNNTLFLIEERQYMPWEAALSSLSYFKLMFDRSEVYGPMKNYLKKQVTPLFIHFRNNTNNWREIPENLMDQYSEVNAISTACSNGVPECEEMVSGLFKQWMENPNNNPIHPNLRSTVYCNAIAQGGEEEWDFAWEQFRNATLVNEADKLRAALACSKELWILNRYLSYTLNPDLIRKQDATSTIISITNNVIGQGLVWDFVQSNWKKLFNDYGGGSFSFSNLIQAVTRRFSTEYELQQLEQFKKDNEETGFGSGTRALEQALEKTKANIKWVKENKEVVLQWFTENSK

Regarding `CCCC(=O)Nc1ccc([C@@H](C)N2C(=O)c3c(F)c(F)c(F)c(F)c3C2=O)cc1`, the “Aminopeptidase N inhibiting activity IC50” value is 80 µg/mL.

`Cc1ccc([C@@H](C)N2C(=O)c3c(F)c(F)c(F)c(F)c3C2=O)cc1`: the “Aminopeptidase N inhibiting activity IC50” value stood at 9.5 µg/mL. The value for `CCCC(=O)Nc1ccc([C@H](C)N2C(=O)c3c(F)c(F)c(F)c(F)c3C2=O)cc1` was 3.6 µg/mL. With `C[C@H](c1ccc(N)cc1)N1C(=O)c2c(F)c(F)c(F)c(F)c2C1=O` the figure was 5 µg/mL; with `C[C@@H](c1ccc([N+](=O)[O-])cc1)N1C(=O)c2c(F)c(F)c(F)c(F)c2C1=O`, 5.3 µg/mL.

The values above are taken from patent US6429212B1, “Medicinal composition” (Ishihara Sangyo Kaisha Ltd., priority 1996, dated 2002).
